2 compounds from BindingDB's records for doi:10.1161/01.cir.102.23.2836 (Nih, 2000) can be followed below.

The chains behind the UniProt entries cited, without tags or fusion partners.
UniProt P14842, whole entry: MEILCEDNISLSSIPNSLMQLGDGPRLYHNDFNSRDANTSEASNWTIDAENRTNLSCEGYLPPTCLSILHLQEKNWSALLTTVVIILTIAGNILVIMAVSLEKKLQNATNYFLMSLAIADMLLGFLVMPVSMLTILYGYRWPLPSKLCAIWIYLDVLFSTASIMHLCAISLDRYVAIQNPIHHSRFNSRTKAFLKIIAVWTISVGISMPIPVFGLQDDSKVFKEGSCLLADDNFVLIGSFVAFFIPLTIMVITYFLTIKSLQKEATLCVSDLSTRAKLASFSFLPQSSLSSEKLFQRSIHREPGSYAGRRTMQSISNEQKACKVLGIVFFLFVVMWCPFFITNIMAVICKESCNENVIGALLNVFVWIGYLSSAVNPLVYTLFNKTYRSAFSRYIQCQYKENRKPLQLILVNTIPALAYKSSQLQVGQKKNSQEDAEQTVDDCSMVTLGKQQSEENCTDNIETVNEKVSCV
UniProt P41595, whole entry: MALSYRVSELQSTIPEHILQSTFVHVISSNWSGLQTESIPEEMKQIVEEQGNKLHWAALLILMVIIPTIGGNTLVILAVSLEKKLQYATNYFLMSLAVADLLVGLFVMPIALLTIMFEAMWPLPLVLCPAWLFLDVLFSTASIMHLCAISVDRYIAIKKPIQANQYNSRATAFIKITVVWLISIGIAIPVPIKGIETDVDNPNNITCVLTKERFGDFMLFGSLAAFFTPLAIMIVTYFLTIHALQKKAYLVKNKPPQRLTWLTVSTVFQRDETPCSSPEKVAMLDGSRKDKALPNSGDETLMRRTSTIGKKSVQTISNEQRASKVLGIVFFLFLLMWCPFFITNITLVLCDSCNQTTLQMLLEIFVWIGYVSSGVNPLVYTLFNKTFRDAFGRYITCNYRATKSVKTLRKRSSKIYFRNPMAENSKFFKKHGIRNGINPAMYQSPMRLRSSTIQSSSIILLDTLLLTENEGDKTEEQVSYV

pKi: −log10 of the molar value. Where “and” joins values, the source holds several entries; their conditions need not be identical. Identical values can stand only once.

Assay [1] addresses 5-hydroxytryptamine receptor 2A (Rattus norvegicus, UniProt P14842).
Assay [2] concerns the target 5-hydroxytryptamine receptor 2B (Homo sapiens, UniProt P41595).

Consider `CN1C[C@H](C(=O)N[C@]2(C)O[C@@]3(O)[C@@H]4CCCN4C(=O)[C@H](Cc4ccccc4)N3C2=O)C=C2c3cccc4[nH]cc(c34)C[C@H]21` [12'-hydroxy-2'-methyl-5'alpha-(phenylmethyl)ergotaman-3',6',18-trione], for which the pKi in assay [1] is 8.05. Turning to `CCNC(C)Cc1cccc(C(F)(F)F)c1` (configuration not stated) [NSC_3337], the pKi in assay [2] is 5.29 and 5.24.

As usually defined, the pKi is the negative decadic logarithm of the Ki, by convention in mol/L.
